# Measurements as given in ChEMBL document CHEMBL1141977, “Studies towards the next generation of antidepressants. Part 4: derivatives of 4-(5-fluoro-1H-indol-3-yl)cyclohexylamine with affinity for the serotonin transporter and the 5-HT1A receptor” (Bioorg Med Chem Lett, 2005).
# Amino acid sequences for entries named in this document (tags omitted).
# UniProt P31652, whole entry: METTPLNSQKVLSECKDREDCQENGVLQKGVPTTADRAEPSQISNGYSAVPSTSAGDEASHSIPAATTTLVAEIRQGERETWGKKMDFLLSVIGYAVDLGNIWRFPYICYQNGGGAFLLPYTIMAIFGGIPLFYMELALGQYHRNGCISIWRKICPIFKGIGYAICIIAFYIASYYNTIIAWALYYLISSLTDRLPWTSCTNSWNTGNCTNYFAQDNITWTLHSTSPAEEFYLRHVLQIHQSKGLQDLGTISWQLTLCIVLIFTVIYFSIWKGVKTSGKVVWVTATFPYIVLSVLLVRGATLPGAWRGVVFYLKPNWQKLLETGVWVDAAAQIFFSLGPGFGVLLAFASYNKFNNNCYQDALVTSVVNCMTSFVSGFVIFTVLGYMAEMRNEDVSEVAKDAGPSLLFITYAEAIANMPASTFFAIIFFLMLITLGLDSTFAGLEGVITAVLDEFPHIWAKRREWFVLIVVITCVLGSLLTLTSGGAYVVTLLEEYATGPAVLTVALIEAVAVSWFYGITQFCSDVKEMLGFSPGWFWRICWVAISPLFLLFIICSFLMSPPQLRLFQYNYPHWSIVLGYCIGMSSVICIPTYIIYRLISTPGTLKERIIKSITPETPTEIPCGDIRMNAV
# Target: Sodium-dependent serotonin transporter (Rattus norvegicus, UniProt P31652)
# Assay: Binding affinity determined against Serotonin transporter determined by displacement of [3H]paroxetine from rat cortical membranes
# Format: cell membranes, Membrane
row,Structure (SMILES),Ki
1,COc1ccccc1OCCN[C@H]1CC[C@@H](c2c[nH]c3ccc(F)cc32)CC1,3.98 nM
2,COc1ccccc1OCCN[C@H]1CC[C@H](c2c[nH]c3ccc(F)cc32)CC1,6.48 nM
